## Antibody variant affinities, Ab-91 heavy chain, assay 2

Binding partner: SARS-CoV-2 spike HR2 peptide, sequence PDVDLGDISGINAS.

Each scFv is VL, three GGGGS repeats, VH, as in the parent Ab-91, and differs from it in the CDRs of the heavy chain only.
VL: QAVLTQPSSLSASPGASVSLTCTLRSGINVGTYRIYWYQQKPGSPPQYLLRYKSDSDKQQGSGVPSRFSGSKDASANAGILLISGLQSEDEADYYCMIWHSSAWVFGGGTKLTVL
VH: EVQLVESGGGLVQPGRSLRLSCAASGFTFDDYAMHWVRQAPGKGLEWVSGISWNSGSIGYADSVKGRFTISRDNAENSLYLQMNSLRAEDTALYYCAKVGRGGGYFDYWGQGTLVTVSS

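The parent was found by panning a naive human phage display library on the peptide. Variants in AAYL51 differ from the parent at up to three CDR positions; double and triple changes were sampled at random. The assay is AlphaSeq: two haploid yeast populations carry antibody and antigen on their surface. After mating in shaken culture at 30 °C for 16 h, diploids were selected and their barcode pairs sequenced. The ratio of observed to expected reads was calibrated, replicate by replicate, on BCL2-family standards whose Kd was known from biolayer interferometry. There are three technical replicates.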

The parent's heavy chain CDRs are GFTFDDYAMH, GISWNSGSIGYADSVK, VGRGGGYFDY; each variant's own CDRs replace them letter for letter.
Scale: log10 of Kd in nM, estimated from mating counts; low values are strong binders.
A mean of the replicates is given; it leaves out those without a signal.
"no signal" means that the variant was in the library but no mating with the target was seen in any replicate; the authors take this as a sign of poor binding, and no number exists.
Parent in this assay: reference entry 1.86, copy in this library 0.88.
Three control strains display no target. For library AAYL51, 21% of the pairings with them gave a signal, with a median of 4.54 and one signal in twenty below 3.26, so weak values seen in few replicates may be background.

mean log10 Kd (nM),replicates with signal,CDR-H1,CDR-H2,CDR-H3
no signal,0 of 3,GFTFDDYEMH,GFSWNSGSIGYRDSVK,VGRGGGYFDY
3.21,3 of 3,GFTFDDYAMH,GISRQSGSIGYADSVK,VGRGGGYFCY
no signal,0 of 3,GFTTDDYAMH,GFSWNSGSIGYADSVK,VGRGGGYFDH
no signal,0 of 3,GRTLDDYAMH,GISWNSGSMGYADSVK,VGRGGGYFDY
no signal,0 of 3,GFTFDNYAMH,GISWGSGSIGYADSVK,VGRGGGYFNY
1.54,3 of 3,GFTFDDYAMH,GISVNSGSIGYADIVT,VGRGGGYFDY
4.42,1 of 3,GFTFDDYWMH,GISWNSGSIGYADFVK,VGRGGGYFDY
4.93,1 of 3,GETFDDYAMN,GISWNSGSIGYADSTK,VGRGGGYFDY
3.50,1 of 3,IFTFDDYARH,GISWNSGSIRYADSVK,VGRGGGYFDY
4.17,1 of 3,GFTFDDYAMH,GISWNSGSIGYADSVK,QGRGGDYFDY
4.63,2 of 3,GTTFDDYAPH,GISWNSGSIGYADSVK,VGRGGGYFDY
4.91,1 of 3,GFTFDDYAMH,SISWNSGSIGAADSVK,VGIGGGYFDY
no signal,0 of 3,GFTFDDYAMH,GISWPSGSIEGADSVK,VGRGGGYFDY
no signal,0 of 3,GFTDDDYHMH,GISWNSGSIGYADSVK,CGRGGGYFDY
4.73,1 of 3,GFTFDDYAMH,GISWNSGSIWYADSVK,MGRGGGYFDC
no signal,0 of 3,GKTFDDYAMH,IISWNSGSIGYADSVK,VGRGGRYFDY
no signal,0 of 3,GFTRDDYAMH,GISWNSGSIGYADSVI,VGYGGGYFDY
2.61,3 of 3,GFPFDDYAMH,GISLNSGSIGYADSVK,VGRGGGYFDL
1.25,3 of 3,PFTFDDYAMH,GRSWNSGSIGYADSVK,VGRGGGYFDY
4.64,3 of 3,GFTFDDYAMI,GISWNSGSIGVADSVK,NGRGGGYFDY
no signal,0 of 3,GFTFDCYAMH,GISWNSGSIGYADSVK,QMRGGGYFDY
4.90,1 of 3,GFTFDDYAMH,VISWNSGSIGYADSVK,VGRGGGYNDY
2.54,3 of 3,GFTFDDYAMH,GISCNSGSIGYADSVK,VGRVGGYLDY
no signal,0 of 3,GFTFDDYAMH,GISWNSGSAGYADSVK,VIRGGGYFDN
4.28,1 of 3,GFTFDDYSMH,GASWNSGSIGYADSDK,VGRGGGYFDY
5.58,1 of 3,GFTFDDYAGH,GISWNSGSIGYADSGK,VGRGGGYFDG
no signal,0 of 3,GFTFDDYAMH,GIQWNSGSKGYADSVK,VGRHGGYFDY
4.77,3 of 3,GFTDDDYAMH,NISRNSGSIGYADSVK,VGRGGGYFDY
4.82,1 of 3,GFTFDDYAMP,GISWNSGSIGYASSVK,VGRGGSYFDY
no signal,0 of 3,GFIFDDYAMH,GIYWNSGSIGYADSVK,VGRGFGYFDY
no signal,0 of 3,GFTFDDYAAH,GISWNSGSIGYADSVT,VGRGGGYFVY
no signal,0 of 3,GFTFDDYAMH,GISWNSQSGGYADSVK,VGRGGQYFDY
no signal,0 of 3,GFTFDKYAMH,GISWNSGSIGQADSVK,VGRGGAYFDY
5.58,2 of 3,GFTFDDYAMH,GISWNSMSIHDADSVK,VGRGGGYFDY
no signal,0 of 3,GFTFDPYAMH,GISWASGSIGYADSVK,VGRGGGYFDY
no signal,0 of 3,GFTFPDYAMH,GISWNSNSIGYADSVK,VGRMGGYFDY
4.62,2 of 3,GFTFIDYFMH,GISWNSGSIGHADSVK,VGRGGGYFDY
1.15,3 of 3,GFTFDDVAMH,GISYNSGSIGYADFVK,VGRGGGYFDY
no signal,0 of 3,TFTFDDYAMH,GISWNSGSIGYADLVK,VGHGGGYFDY
no signal,0 of 3,GFTQDDYAMH,GISWNSLSIGYADSVK,VGRGGGYFDI
5.62,3 of 3,GFTFDDYAMH,GISWDSPSIGYADSVK,VGRGGGWFDY
2.97,3 of 3,GFTFDDWAMH,GISWNSGSIGYADSVK,VCRGSGYFDY
4.03,1 of 3,GFTFDDYAMH,GISWNSGSIGYHDCGK,VGRGGGYFDY
no signal,0 of 3,GFTFDDYAMH,GISWNSGLIGYADSVK,VGRGVGYFDE
4.74,3 of 3,GWTMDDYAMH,GIVWNSGSIGYADSVK,VGRGGGYFDY
5.03,2 of 3,GFTFDDYAMH,GQSWNSGSIGYADSVK,FGRGGGYYDY
no signal,0 of 3,GFTFEDRAMH,GISWNAGSIGYADSVK,VGRGGGYFDY
4.94,3 of 3,GFMFDDYAMH,GITWYSGSIGYADSVK,VGRGGGYFDY
3.95,1 of 3,TFTFDDYAMH,GIVWNSGSIGYADSVK,VGRGGGGFDY
no signal,0 of 3,GFTFDDVAMH,GISWNSGSIGYADSVK,VGCGGGQFDY
no signal,0 of 3,GFTFDDYAMH,GISWNSGSIGYADSVN,VARGGNYFDY
4.66,2 of 3,GFTFDDYAMH,GISWNSGPIGYACSVK,VGPGGGYFDY
5.07,2 of 3,GFTFDLYAMH,GISWNSGSIGRAFSVK,VGRGGGYFDY
no signal,0 of 3,GFTPDDYGMH,GISWNSGSIGYADSVK,VGRGGGYIDY
4.42,1 of 3,GFTEWDYAMH,GISWNSGSKGYADSVK,VGRGGGYFDY
3.82,3 of 3,GFTFDDYAEH,GISWNSGSIGNADSVK,VGRGGGYFFY
no signal,0 of 3,GFTFDDYAMT,GISWNSGVIGYADSVE,VGRGGGYFDY
no signal,0 of 3,GFTFDDHASH,GISGNSGSIGYADSVK,VGRGGGYFDY
5.51,2 of 3,GFTFDDYAMH,GISWNSVSIGYADSVL,AGRGGGYFDY
4.88,2 of 3,GFTFGDYAMH,SISWNSGSIGYADSVK,VTRGGGYFDY
no signal,0 of 3,GFTFDDYAMH,GISWNSGSIGYADSVK,VGGGYGYFDN
1.13,3 of 3,GFTFDMYAMH,GISWNSGSIGYKDSVK,VGRGGGYMDY
4.04,2 of 3,GFMFDDYAMH,AISWNSCSIGYADSVK,VGRGGGYFDY
4.90,2 of 3,GFTFDDYAMH,GISWNSLSIGAADSVK,VGRDGGYFDY
4.40,2 of 3,GFTFDDYAMH,GISWNSGSIGYADSVY,VMRGGGYFYY
2.93,3 of 3,GFTFDDYAMH,GISANSGSIGYSQSVK,VGRGGGYFDY
2.95,3 of 3,GFTFYDYAMH,GIGWNSKSIGYADSVK,VGRGGGYFDY
1.38,3 of 3,GFTFDDYAMH,GISWNSGSIGYADSVK,VGRGGGSFDE
0.13,3 of 3,GFTFDDYAMH,GISMNSGSIGYADSVK,VGHGGGYFDY
no signal,0 of 3,GFTFDDYAMH,GIAWISGSIGYADSVK,WGRGGGYFDY
4.73,3 of 3,GFTFNDYAMH,GISWNSGHIGDADSVK,VGRGGGYFDY
4.04,2 of 3,GFTFIDYAMH,GISWNSGSIGYADSVK,RGRGGGCFDY
no signal,0 of 3,GSTFDDYAMH,GISWNSGSIGYADSTK,GGRGGGYFDY
no signal,0 of 3,GFTFDDYSMH,GISWNSGSIGKADEVK,VGRGGGYFDY
2.45,3 of 3,GFIFDTYAMH,GISWNSGSIGYADFVK,VGRGGGYFDY
4.71,2 of 3,GFVFDDYAMH,GISWNSGSIGWADSVI,VGRGGGYFDY
3.17,3 of 3,GFTFFDYAMH,GISWNSGSIVYADSVK,VGRGGGYCDY
5.38,2 of 3,GFTFDDYAMH,GVSWNSGSIGYADSVG,VGRGGMYFDY
2.62,1 of 3,GFTFDDYAMH,GHSWNSGSIGYADSVK,TGRGGGYFDY
3.13,1 of 3,GFTFVDYAMH,GISWNSGPIGYAMSVK,VGRGGGYFDY

For reference, 5 entries of the list once more:

CDR-H1,CDR-H2,CDR-H3,mean log10 Kd (nM),replicates with signal
GFTFFDYAMH,GISWNSGSIVYADSVK,VGRGGGYCDY,3.17,3 of 3
GETFDDYAMN,GISWNSGSIGYADSTK,VGRGGGYFDY,4.93,1 of 3
GFTFDDYSMH,GASWNSGSIGYADSDK,VGRGGGYFDY,4.28,1 of 3
GFTFIDYFMH,GISWNSGSIGHADSVK,VGRGGGYFDY,4.62,2 of 3
GFTFDCYAMH,GISWNSGSIGYADSVK,QMRGGGYFDY,no signal,0 of 3

Source: Engelhart et al. 2022 (doi:10.1038/s41597-022-01779-4), MIT Lincoln Laboratory and A-Alpha Bio; data file from the FLAb repository.